Results published in US11634396B2 (priority 2021, dated 2023).

Amino acid sequences for entries named in this document (tags omitted). A change or cut given only in a name is not applied to a line headed by its entry.
UniProt P41143, whole entry: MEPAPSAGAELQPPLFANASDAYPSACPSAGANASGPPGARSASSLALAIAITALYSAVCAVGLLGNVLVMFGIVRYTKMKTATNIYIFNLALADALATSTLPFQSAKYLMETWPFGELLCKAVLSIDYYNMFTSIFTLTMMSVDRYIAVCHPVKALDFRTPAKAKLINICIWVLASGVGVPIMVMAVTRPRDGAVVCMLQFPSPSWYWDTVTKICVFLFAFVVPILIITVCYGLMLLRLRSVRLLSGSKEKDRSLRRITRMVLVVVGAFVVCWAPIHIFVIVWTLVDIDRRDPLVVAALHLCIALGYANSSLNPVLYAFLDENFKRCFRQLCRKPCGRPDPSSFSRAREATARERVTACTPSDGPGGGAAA
UniProt P35372, whole entry: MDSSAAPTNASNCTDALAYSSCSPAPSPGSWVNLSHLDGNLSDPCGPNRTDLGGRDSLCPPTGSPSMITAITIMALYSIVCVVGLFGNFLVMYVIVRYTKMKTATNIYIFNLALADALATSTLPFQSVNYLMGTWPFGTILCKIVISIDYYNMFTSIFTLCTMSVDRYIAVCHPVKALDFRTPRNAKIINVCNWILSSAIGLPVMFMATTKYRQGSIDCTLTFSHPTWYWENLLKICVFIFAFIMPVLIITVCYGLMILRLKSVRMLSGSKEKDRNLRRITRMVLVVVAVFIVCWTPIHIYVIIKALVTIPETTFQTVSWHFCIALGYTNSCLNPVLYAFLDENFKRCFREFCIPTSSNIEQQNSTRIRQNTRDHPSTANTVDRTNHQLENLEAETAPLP
UniProt P41145: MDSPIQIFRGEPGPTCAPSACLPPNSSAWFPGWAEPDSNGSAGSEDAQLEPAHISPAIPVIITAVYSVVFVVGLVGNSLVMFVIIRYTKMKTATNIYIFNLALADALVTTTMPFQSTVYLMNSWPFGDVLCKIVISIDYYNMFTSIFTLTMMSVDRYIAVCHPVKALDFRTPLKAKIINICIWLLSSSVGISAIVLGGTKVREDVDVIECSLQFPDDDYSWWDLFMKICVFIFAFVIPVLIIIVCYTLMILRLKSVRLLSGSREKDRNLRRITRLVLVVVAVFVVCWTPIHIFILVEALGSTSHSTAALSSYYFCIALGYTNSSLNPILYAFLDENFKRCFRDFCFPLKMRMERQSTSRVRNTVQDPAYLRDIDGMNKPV

Tests used:
human dOR = human dOR (Homo sapiens (Human), UniProt P41143); test: cell-based; details: dOR cAMP Agonist Assay EC50, CHO Tag-lite human dOR stable cell line; forskolin
Method: (§1) CHO Tag-lite human mOR stable cell line from Cisbio (NCBI accession number: NM_000914.3, Bedford, Mass.) were seeded and grown to approximately 80% confluence in Ham F-12 with 10% FBS, 50 U/ml penicillin, 50 μg/ml streptomycin, 2 mM Hepes, and 1 mg/ml geneticin (Invitrogen, Carlsbad, Calif.). Cells were then harvested using accutase (Corning. Coming, N.Y.), centrifuged at 1300 RPM for 5 min, and plated at 5000 cells per 5 μL per well in a 5× dilution of stimulation buffer consisting of the HTRF cAMP Gi kit, water and IBMX at 0.5 mM (Cisbio, Bedford, Mass.) in white HTRF low volume 384 well plates (Cisbio, Bedford, Mass.). Plates were then incubated at 37° C. in 5% CO2 for 10 minutes. For the agonist assay, forskolin was added to a final concentration of 4 μM. […] Test compounds were dissolved in DMSO and water, and then serially diluted to working concentrations such that the concentration of DMSO was less than 0.1%. Diluted test compounds were added at 2.5 μL per well, and plates were incubated at 37° C., and 5% CO2 for 15 minutes, and then at room temperature for 15 minutes. Next 5 μl/well of cAMP Eu-cryptate and 5 μl/well of anti-cAMP-d2 (both diluted 1:20 in lysis buffer) were added, and plates were incubated at room temperature for 1 hour. Following incubation, plates were read in a Synergy Neo2 multi-mode reader (Biotek, Winooski, Vt.). […] For the agonist assay, data was normalized using the maximal DAMGO response. Measurements were performed in triplicate and the dose response was fit using nonlinear regression.

human mOR = human mOR (Homo sapiens (Human), UniProt P35372); test: cell-based
Method: as §1

kOR (OPRK1) = kOR (OPRK1) (Homo sapiens (Human), UniProt P41145); test: KOR β-Arrestin antagonist assay (Tango OPRK1-bla U2OS cells); assay type: cell-based
Text: KOR β-Arrestin Agonist and Antagonist assays were preformed using the Tango™ OPRK1-bla U2OS cells from Invitrogen and purchased from ThermoFisher, catalog number K1576.

SMILES	EC50 (human dOR) [nM]	IC50 (human mOR) [nM]	IC50 (kOR (OPRK1)) [nM]
Cc1c(C[C@@H](CNC(=O)C[C@H](C)c2ccccc2)N(C)C)ccc2[nH]ncc12 [Compound 198, (S)-N-((S)-2-(dimethylamino)-3-(4-methyl-1H-indazol-5-yl)propyl)-3-phenylbutanamide]	> 3000	< 300	–
C[C@@H](CC(=O)NC[C@H](Cc1ccc(C(N)=O)cc1Cl)N(C)C)c1ccccc1 [Compound 15, 3-chloro-4-((S)-2-(dimethylamino)-3-((S)-3-phenylbutanamido)propyl)benzamide]	< 300	< 300	< 300
Cc1c(C[C@@H](CNC(=O)C[C@H](C)c2ccccc2)N(C)C)ccc2c1CC(=O)N2 [Compound 181, (3S)-N-[(2S)-2-(dimethylamino)-3-(4-methyl-2-oxo-2,3-dihydro-1H-indol-5-yl)propyl]-3-phenylbutanamide]	> 3000	–	–
C[C@@H](CC(=O)NC[C@H](Cc1ccc(O)c(Cl)c1)N(C)C)c1ccccc1 [Compound 288, (S)-N-((S)-3-(3-chloro-4-hydroxyphenyl)-2-(dimethylamino)propyl)-3-phenylbutanamide]	< 300	< 300	300 to 3000
C[C@@H](CC(=O)NC[C@H](Cc1ccc(O)cc1)N(C)C)c1ccccc1 [Compound 321, (S)-N-((S)-2-(dimethylamino)-3-(4-hydroxyphenyl)propyl)-3-phenylbutanamide]	–	< 300	300 to 3000
C[C@H](CC(=O)NC[C@H](Cc1ccc(O)cc1)N(C)C)c1ccccc1 [Compound 320, (R)-N-((S)-2-(dimethylamino)-3-(4-hydroxyphenyl)propyl)-3-phenylbutanamide]	–	< 300	< 300
C[C@@H](CC(=O)NC[C@H](Cc1ccc2[nH]ncc2c1)N1CCCC1)c1ccccc1 [Compound 222, (S)-N-((S)-3-(1H-indazol-5-yl)-2-(pyrrolidin-1-yl)propyl)-3-phenylbutanamide]	> 3000	< 300	–
CNC(=O)c1ccc(C[C@@H](CNC(=O)C[C@@H](c2ccc(Cl)cn2)C2(C(F)(F)F)CC2)N(C)C)c(C)c1 [Compound 137, 4-((S)-3-((R)-3-(5-chloropyridin-2-yl)-3-(1-(trifluoromethyl)cyclopropyl)propanamido)-2-(dimethylamino)propyl)-N,3-dimethylbenzamide]	–	< 300	–
C[C@H](CC(=O)NC[C@H](Cc1ccc(C(N)=O)cc1Cl)N(C)C)c1ccccc1 [Compound 14, 3-chloro-4-((S)-2-(dimethylamino)-3-((R)-3-phenylbutanamido)propyl)benzamide]	< 300	< 300	300 to 3000
CNC(=O)c1ccc(C[C@@H](CNC(=O)C[C@H](C)c2ccccc2)N(C)C)cc1F [Compound 167, 4-((S)-2-(dimethylamino)-3-((S)-3-phenylbutanamido)propyl)-2-fluoro-N-methylbenzamide]	< 300	> 3000	–
CNC(=O)c1ccc(C[C@@H](CNC(=O)C[C@H](c2ccc(Cl)cn2)C2(C(F)(F)F)CC2)N(C)C)c(C)c1 [Compound 138, 4-((S)-3-((S)-3-(5-chloropyridin-2-yl)-3-(1-(trifluoromethyl)cyclopropyl)propanamido)-2-(dimethylamino)propyl)-N,3-dimethylbenzamide]	–	< 300	–
C[C@@H](CC(=O)NC[C@H](Cc1c(F)cc(O)cc1F)N(C)C)c1ccccc1 [Compound 240, (S)-N-((S)-3-(2,6-difluoro-4-hydroxyphenyl)-2-(dimethylamino)propyl)-3-phenylbutanamide]	–	< 300	< 300
C[C@H](CC(=O)NC[C@H](Cc1ccc(C(N)=O)cc1)N(C)C)c1ccccc1 [Compound 98, 4-((S)-2-(dimethylamino)-3-((R)-3-phenylbutanamido)propyl)benzamide]	–	> 3000	–
CNC(=O)c1ccc(C[C@@H](CNC(=O)C[C@H](C)c2ccccc2)n2ccnc2)cc1F [Compound 161, 44-((S)-2-(1H-imidazol-1-yl)-3-((S)-3-phenylbutanamido)propyl)-2-fluoro-N-methylbenzamide]	> 3000	> 3000	–
C[C@H](CC(=O)NC[C@H](Cc1ccc(O)c(Cl)c1)N(C)C)c1ccccc1 [Compound 289, (R)-N-((S)-3-(3-chloro-4-hydroxyphenyl)-2-(dimethylamino)propyl)-3-phenylbutanamide]	–	< 300	300 to 3000
CNC(=O)c1ccc(C[C@@H](CNC(=O)C[C@@H](C)c2ccccc2)N(C)C)cc1Cl [Compound 149, 2-chloro-4-((S)-2-(dimethylamino)-3-((R)-3-phenylbutanamido)propyl)-N-methylbenzamide]	< 300	< 300	–
Cc1c(C[C@@H](CNC(=O)C[C@H](C)c2ccccc2)N(C)C)ccc2[nH]c(=O)oc12 [Compound 171, (3S)-N-[(2S)-2-(dimethylamino)-3-(7-methyl-2-oxo-2,3-dihydro-1,3-benzoxazol-6-yl)propyl]-3-phenylbutanamide]	> 3000	< 300	–
